Results: US12630506B2, “Direct thrombin inhibitors and methods of use thereof” (Baylor College of Medicine, priority 2020, dated 2026)

Biological target: Thrombin (Homo sapiens, UniProt P00734)
Assay: Thrombin inhibition in vitro (Kiapp)
Assay type: biochemical
Details: FIG. 1, read-out: inhibition constant (thrombin)
Procedure: The inhibitory potency of Compound 1 on thrombin was tested in vitro. Argatroban, a known small molecule direct thrombin inhibitor, was used as a control.

CC1CNc2c(cccc2S(=O)(=O)N[C@@H](CCCNC(=N)N)C(=O)N2CC[C@@H](C)C[C@@H]2C(=O)O)C1 (stereo partly shown) [Argatroban, reference compound]
Ki: 9 nM
